Assay: Partition coefficient, log P of the compound
Assay type: physicochemical
Details: octanol/water

logP: 1.95
SMILES: COCCc1ccc(OCC(O)CNC(C)C)cc1 (stereo unspecified) [METOPROLOL]

From ChEMBL document CHEMBL1140736, “High-throughput log P determination by ultraperformance liquid chromatography: a convenient tool for medicinal chemists” (J Med Chem, 2008)
